Each structure is given as a SMILES string. Structures can show the parent of a compound that is named as a salt. What follows is the remainder of the data, with few or none of the lowest values.

The assay deals with U2OS. Briefly: mean cytoplasmic OPP incorporation (global translation) relative to DMSO (% of DMSO); higher = more protein synthesis. The conditions noted are these: 10 µM; 24 h. The protocol: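 Primary image-based screen in U2OS cells: compounds at 10 uM for 24 h, then a 1 h o-propargyl-puromycin (OPP) pulse, click labelling, and high-throughput microscopy. Mean cytoplasmic OPP intensity and nuclei count were normalised to DMSO wells within each plate (DMSO = 100) and averaged over triplicate plates.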
On to `N/C(=N/CCc1ccc(I)cc1)SCCCc1cnc[nH]1` [Iodophenpropit dihydrobromide], for which the “mean cytoplasmic OPP incorporation” value turned out to be 97.5.

Source of the values: the supplement of paper PMC8183993.
